Measurements from patent publication US4576625A, “Fertilizers containing urea with urease inhibitors” (Huls Aktiengesellschaft, priority 1983, dated 1986).

Test system: urease

Row | SMILES | urease inhibitor effect (in words)
1 | O=C1C2C3C=CC(C3)C2C(=O)N1SC(Cl)(Cl)C(Cl)Cl (centres unmarked) | No outstanding inhibitor effect
2 | O=C1c2ccccc2C(=O)N1SC(Cl)(Cl)C(Cl)Cl | No outstanding inhibitor effect
